Consider 1 molecule from patent US20170217976A1, “6-(AMINO ACID)-MORPHINAN DERIVATIVES IN COMBINATION WITH PERMEATION […] FOR USE AS AN ORALLY, […], TRA[…] NASALLY AD[…]” (C[…], priority 2014, published 2017).

The chains behind the UniProt entries cited, without tags or fusion partners. Where a name states a change or a piece, a line headed by the entry shows the natural chain unless it says otherwise.
UniProt P41144: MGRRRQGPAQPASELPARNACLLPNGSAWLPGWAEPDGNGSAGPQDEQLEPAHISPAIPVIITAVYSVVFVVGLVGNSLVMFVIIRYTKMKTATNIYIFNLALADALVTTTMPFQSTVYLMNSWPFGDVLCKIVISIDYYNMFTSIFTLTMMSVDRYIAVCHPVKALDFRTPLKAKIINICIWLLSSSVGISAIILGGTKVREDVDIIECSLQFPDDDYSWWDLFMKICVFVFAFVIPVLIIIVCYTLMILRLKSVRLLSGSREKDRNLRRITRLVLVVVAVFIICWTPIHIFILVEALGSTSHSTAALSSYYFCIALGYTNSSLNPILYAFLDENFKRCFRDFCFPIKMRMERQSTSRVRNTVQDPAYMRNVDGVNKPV

By Ki is commonly meant the dissociation constant of the complex between target and ligand, obtained from inhibition or displacement.

The target in the assay is KOR (Cavia porcellus, UniProt P41144). Briefly: Opioid receptor binding, KOR, guinea pig brain membranes. The settings on record: read-out: Binding Ki (nM) KOR, in vitro binding assay.

Regarding `CO[C@@]12CC[C@@H](N[C@@H](Cc3ccccc3)C(=O)OC(C)(C)C)[C@@H]3Oc4c(O)ccc5c4[C@@]31CCN(C)[C@@H]2C5` [4-t-Bu ester], the Ki was found to be 151 nM.
